Results taken from patent publication US20200306295A1, “METHOD AND DEVICE FOR ANNIHILATION OF Staphylococcus aureus” (priority 2017, published 2020).

Test system: stationary-phase MRSA
Format: cell-based, S. aureus
Settings: 16 min laser stated for tetracycline; 2-fold or larger is synergy (FICI)
Description: To monitor the response of bacteria to laser treatment alone, antibiotic treatment alone, or their combinations, bacterial growth was continuously monitored overnight (18 hours with an interval of 30 min at 37° C.) by measuring optical density at 600 nm (OD600). Depending on the specific assay applied, the bacterial cells were suspended in 100 or 200 μl TSB medium under different treatment schemes (antibiotic alone, laser treatment alone, antibiotic plus laser treatment) with a final concentration of ˜10^5 CFU/ml. Bacterial growth was defined as OD600≥0.1.
Stationary-phase bacterial cells was washed and resuspended in 1×PBS at its original concentration. […] The treated droplet was collected and resuspended into 5 ml TSB (1:1000 dilution) for each group. […] After serial dilution, bacterial growth within the same well plate was monitored by a plate reader for 18 hours (OD600, 37° C.). […] Based on the readout of OD600, a heat map was created to evaluate the antibiotic potentiation or synergistic effect enabled by STX photolysis.
Based on the checkerboard results, the fractional inhibitory concentration index (FICI), a synergy evaluation method between two antibiotics, was calculated as below: FICI=MIC of antibiotic A in combination/MIC of antibiotic A alone+MIC of antibiotic B in combination/MIC of antibiotic B alone. […]

Question: `Cc1onc(-c2ccccc2)c1C(=O)N[C@@H]1C(=O)N2[C@@H]1SC(C)(C)[C@@H]2C(=O)O` [Oxacillin, oxacillin] was tested. Which “fold reduction of lowest concentration completely inhibiting MRSA growth within 18 hours, with laser treatment” value did it give?
Answer: 8 fold
